In PubChem BioAssay (NCI):
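Step 1: Grow cells in 96-well plates. Step 2: Expose to compound for 48 hours at 5 concentrations. Step 3: Interpolate endpoints linearly; if unreached, use highest concentration. GI50: concentration for 50% inhibition of growth. TGI: concentration producing complete growth inhibition.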

Experiments:
Test in all cases: NCI tumour cell line growth inhibition, 48 h
NCI-H23 lung = system: NCI-H23 lung
NCI-H322M lung = system: NCI-H322M lung
NCI-H460 lung = system: NCI-H460 lung
NCI-H522 lung = system: NCI-H522 lung
NCI/ADR-RES ovarian = system: NCI/ADR-RES ovarian
OVCAR-3 ovarian = system: OVCAR-3 ovarian
OVCAR-4 ovarian = system: OVCAR-4 ovarian
OVCAR-5 ovarian = system: OVCAR-5 ovarian
OVCAR-8 ovarian = system: OVCAR-8 ovarian
PC-3 prostate = system: PC-3 prostate
RPMI-8226 leukemia = system: RPMI-8226 leukemia
RXF 393 renal = system: RXF 393 renal
SF-268 CNS = system: SF-268 CNS
SF-295 CNS = system: SF-295 CNS
SF-539 CNS = system: SF-539 CNS
SK-MEL-2 melanoma = system: SK-MEL-2 melanoma
SK-MEL-28 melanoma = system: SK-MEL-28 melanoma
SK-MEL-5 melanoma = system: SK-MEL-5 melanoma
SK-OV-3 ovarian = system: SK-OV-3 ovarian
SN12C renal = system: SN12C renal
SNB-19 CNS = system: SNB-19 CNS
SNB-75 CNS = system: SNB-75 CNS
SR leukemia = system: SR leukemia
SW-620 colon = system: SW-620 colon
T-47D breast = system: T-47D breast
TK-10 renal = system: TK-10 renal
U251 CNS = system: U251 CNS
UACC-257 melanoma = system: UACC-257 melanoma
UACC-62 melanoma = system: UACC-62 melanoma
UO-31 renal = system: UO-31 renal

**Q.** What does the source list for `N#Cc1cc([N+](=O)[O-])cc([N+](=O)[O-])c1N`?
**A.** TGI (NCI-H23 lung): > 100 µM; GI50 (NCI-H322M lung): 74.1 µM; TGI (NCI-H322M lung): > 100 µM; GI50 (NCI-H460 lung): 3.73 µM; TGI (NCI-H460 lung): > 100 µM; GI50 (NCI-H522 lung): 2.63 µM; TGI (NCI-H522 lung): 13 µM; GI50 (NCI/ADR-RES ovarian): > 100 µM; TGI (NCI/ADR-RES ovarian): > 100 µM; GI50 (OVCAR-3 ovarian): 16 µM; TGI (OVCAR-3 ovarian): 30.3 µM; GI50 (OVCAR-4 ovarian): 17.4 µM; TGI (OVCAR-4 ovarian): 36.8 µM; GI50 (OVCAR-5 ovarian): 95 µM; TGI (OVCAR-5 ovarian): > 100 µM; GI50 (OVCAR-8 ovarian): > 100 µM; TGI (OVCAR-8 ovarian): > 100 µM; GI50 (PC-3 prostate): 44.3 µM; TGI (PC-3 prostate): > 100 µM; GI50 (RPMI-8226 leukemia): 14.6 µM; TGI (RPMI-8226 leukemia): > 100 µM; GI50 (RXF 393 renal): 18.6 µM; TGI (RXF 393 renal): 37.5 µM; GI50 (SF-268 CNS): 22.9 µM; TGI (SF-268 CNS): 62.5 µM; GI50 (SF-295 CNS): > 100 µM; TGI (SF-295 CNS): > 100 µM; GI50 (SF-539 CNS): 14.1 µM; TGI (SF-539 CNS): 36.4 µM; GI50 (SK-MEL-2 melanoma): 29 µM; TGI (SK-MEL-2 melanoma): 71.8 µM; GI50 (SK-MEL-28 melanoma): > 100 µM; TGI (SK-MEL-28 melanoma): > 100 µM; GI50 (SK-MEL-5 melanoma): 2.9 µM; TGI (SK-MEL-5 melanoma): 15 µM; GI50 (SK-OV-3 ovarian): > 100 µM; TGI (SK-OV-3 ovarian): > 100 µM; GI50 (SN12C renal): > 100 µM; TGI (SN12C renal): > 100 µM; GI50 (SNB-19 CNS): > 100 µM; TGI (SNB-19 CNS): > 100 µM; GI50 (SNB-75 CNS): 26.9 µM; TGI (SNB-75 CNS): 76.5 µM; GI50 (SR leukemia): 14.4 µM; TGI (SR leukemia): > 100 µM; GI50 (SW-620 colon): 31.3 µM; TGI (SW-620 colon): > 100 µM; GI50 (T-47D breast): 4.22 µM; TGI (T-47D breast): 18.8 µM; GI50 (TK-10 renal): > 100 µM; TGI (TK-10 renal): > 100 µM; GI50 (U251 CNS): 39.9 µM; TGI (U251 CNS): > 100 µM; GI50 (UACC-257 melanoma): 70.8 µM; TGI (UACC-257 melanoma): > 100 µM; GI50 (UACC-62 melanoma): 17.2 µM; TGI (UACC-62 melanoma): 34.6 µM; GI50 (UO-31 renal): > 100 µM; TGI (UO-31 renal): > 100 µM
